Only a part is listed here, and it is no random draw. Records with an inconclusive call do not appear. Activity calls are given as the source filed them. Calls come from the whole dose curve; as a rule, active = well fitted inhibition curve with a large enough effect; inconclusive = small, poorly fitted or top-dose-only effect; inactive = flat fitted curve, though single readings scatter.
Biological target: Tyrosyl-DNA phosphodiesterase 1 (Homo sapiens) (UniProt Q9NUW8)
Assay: Confirmation Assay for Inhibitors of Tyrosyl-DNA Phosphodiesterase (TDP1); note: nearly all actives have a fitted effect of over 40% in size
Conditions: recombinant human TDP1 enzymatic activity, dose-response
From the text: Human tyrosyl-DNA phosphodiesterase I (Tdp1) is a rational anticancer target because this enzyme is involved in the repair of DNA lesions created by the trapping of human DNA topoisomerase I (Top1) following treatment by anticancer agents such as camptothecins. Recombinant Tdp1 was expressed and purified from E. coli in the laboratory (Anthony et al, Nucleic Acids Research, 2007, Vol. 35, 4474-4484). A Tdp1 DNA substrate bearing a 5' biotin and a 3' phospho-tyrosine was obtained by custom synthesis. This oligonucleotidic DNA substrate was subsequently coupled to a fluorescein isothiocyanate (FITC) group via the free amino group present on the phospho-tyrosine. Tdp1 was screened against the NCGC small molecule library using the AlphaScreen (AS) detection method in which a streptavidin donor AS bead is bound at the 5' end and an anti-FITC AS acceptor bead is bound at the 3' end of the DNA oligonucleotidic substrate. In the presence of Tdp1, the enzyme cleaves the tyrosine-FITC group, leaving a 3' end phosphate on the DNA substrate. This cleavage reaction results in a loss of signal in AS.
This BioAssay is a confirmation of followup compounds from primary TDP1 screen (AID:485290)
NIH Molecular Libraries Probe Production Network [MLPCN] […]
3 ul of Tdp1 enzyme is dispensed to 1536-well Kalypsys black solid bottom plates. […] The detection is then performed on a PerkinElmer Envision reader.
Potency is the fitted concentration of half-maximal effect.

Amino acid sequences for entries named in this document (tags omitted).
UniProt Q9NUW8, whole entry: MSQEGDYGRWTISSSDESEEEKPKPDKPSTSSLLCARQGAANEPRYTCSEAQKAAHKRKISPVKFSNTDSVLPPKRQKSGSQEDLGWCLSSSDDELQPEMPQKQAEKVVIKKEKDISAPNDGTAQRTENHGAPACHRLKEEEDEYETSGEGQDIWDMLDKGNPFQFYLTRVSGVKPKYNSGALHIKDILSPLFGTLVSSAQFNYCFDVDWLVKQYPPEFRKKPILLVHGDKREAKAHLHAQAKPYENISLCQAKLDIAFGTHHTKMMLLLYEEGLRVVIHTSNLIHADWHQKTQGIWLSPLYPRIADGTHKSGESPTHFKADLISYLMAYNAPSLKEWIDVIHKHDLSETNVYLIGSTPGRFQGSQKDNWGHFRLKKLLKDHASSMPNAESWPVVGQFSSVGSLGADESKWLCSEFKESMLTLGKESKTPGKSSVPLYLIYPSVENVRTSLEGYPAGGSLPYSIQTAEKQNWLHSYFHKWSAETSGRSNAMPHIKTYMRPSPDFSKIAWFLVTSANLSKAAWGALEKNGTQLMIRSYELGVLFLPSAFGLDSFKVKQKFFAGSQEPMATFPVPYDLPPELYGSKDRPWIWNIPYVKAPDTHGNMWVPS

SMILES | Potency
N#[O+].[C-]#N.[C-]#N.[C-]#N.[C-]#N.[C-]#N.[Fe+2].[Na+].[Na+] | active: 11.2 µM
[C-]#N.[C-]#N.[C-]#N.[C-]#N.[C-]#N.[C-]#N.[Fe+6].[Fe] | active: 2.51 µM
